pIC50: −log10 of the molar value.
Tests used:
Homo sapiens = species: Homo sapiens; assay: Selectivity ratio of IC50 for recombinant human eNOS to IC50 for recombinant human nNOS
Nitric oxide synthase 1 = Nitric oxide synthase 1 (Homo sapiens, UniProt P29475); assay: Inhibition of recombinant human nNOS expressed in baculovirus infected insect Sf9 cells assessed as conversion of [3H]-L-arginine into [3H]-L-citrulline by radiometric method
Nitric oxide synthase 3 = target: T1, Nitric oxide synthase 3 (Homo sapiens, UniProt P29474); assay: Inhibition of recombinant human eNOS expressed in baculovirus infected insect Sf9 cells assessed as conversion of [3H]-L-arginine into [3H]-L-citrulline by radiometric method
T1 sequence (P29474 whole entry): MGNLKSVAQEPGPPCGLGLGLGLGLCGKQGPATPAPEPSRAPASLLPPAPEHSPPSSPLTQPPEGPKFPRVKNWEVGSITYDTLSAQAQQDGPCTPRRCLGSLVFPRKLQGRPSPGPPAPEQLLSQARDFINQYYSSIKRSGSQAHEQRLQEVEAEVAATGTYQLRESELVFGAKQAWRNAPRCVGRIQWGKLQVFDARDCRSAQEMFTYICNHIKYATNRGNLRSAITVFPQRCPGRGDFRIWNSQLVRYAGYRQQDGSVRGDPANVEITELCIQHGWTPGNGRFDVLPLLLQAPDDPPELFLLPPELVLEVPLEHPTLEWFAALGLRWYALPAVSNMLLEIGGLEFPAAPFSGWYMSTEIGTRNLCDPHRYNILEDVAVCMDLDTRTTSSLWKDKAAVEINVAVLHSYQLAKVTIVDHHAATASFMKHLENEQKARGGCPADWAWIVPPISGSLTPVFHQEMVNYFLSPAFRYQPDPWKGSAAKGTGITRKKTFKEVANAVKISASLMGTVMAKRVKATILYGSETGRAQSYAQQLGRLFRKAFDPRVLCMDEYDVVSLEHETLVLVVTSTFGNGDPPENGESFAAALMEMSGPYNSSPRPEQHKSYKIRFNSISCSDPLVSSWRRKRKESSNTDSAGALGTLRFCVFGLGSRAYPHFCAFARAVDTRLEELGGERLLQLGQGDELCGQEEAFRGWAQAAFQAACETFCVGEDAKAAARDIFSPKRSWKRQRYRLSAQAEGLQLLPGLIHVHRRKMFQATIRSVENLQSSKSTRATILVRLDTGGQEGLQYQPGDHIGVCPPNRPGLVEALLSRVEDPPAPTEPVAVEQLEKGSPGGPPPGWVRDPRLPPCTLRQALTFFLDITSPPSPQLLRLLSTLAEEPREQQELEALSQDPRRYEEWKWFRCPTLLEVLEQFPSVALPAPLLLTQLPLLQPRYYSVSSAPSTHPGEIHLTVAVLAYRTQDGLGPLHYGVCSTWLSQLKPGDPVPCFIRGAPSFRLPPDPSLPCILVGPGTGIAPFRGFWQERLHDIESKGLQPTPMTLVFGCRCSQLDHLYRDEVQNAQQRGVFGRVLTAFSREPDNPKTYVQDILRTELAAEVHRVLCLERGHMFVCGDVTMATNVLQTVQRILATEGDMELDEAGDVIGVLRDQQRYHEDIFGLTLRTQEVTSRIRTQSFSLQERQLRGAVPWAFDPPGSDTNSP

Amino acid sequences for entries named in this document (tags omitted).
UniProt P29475, whole entry: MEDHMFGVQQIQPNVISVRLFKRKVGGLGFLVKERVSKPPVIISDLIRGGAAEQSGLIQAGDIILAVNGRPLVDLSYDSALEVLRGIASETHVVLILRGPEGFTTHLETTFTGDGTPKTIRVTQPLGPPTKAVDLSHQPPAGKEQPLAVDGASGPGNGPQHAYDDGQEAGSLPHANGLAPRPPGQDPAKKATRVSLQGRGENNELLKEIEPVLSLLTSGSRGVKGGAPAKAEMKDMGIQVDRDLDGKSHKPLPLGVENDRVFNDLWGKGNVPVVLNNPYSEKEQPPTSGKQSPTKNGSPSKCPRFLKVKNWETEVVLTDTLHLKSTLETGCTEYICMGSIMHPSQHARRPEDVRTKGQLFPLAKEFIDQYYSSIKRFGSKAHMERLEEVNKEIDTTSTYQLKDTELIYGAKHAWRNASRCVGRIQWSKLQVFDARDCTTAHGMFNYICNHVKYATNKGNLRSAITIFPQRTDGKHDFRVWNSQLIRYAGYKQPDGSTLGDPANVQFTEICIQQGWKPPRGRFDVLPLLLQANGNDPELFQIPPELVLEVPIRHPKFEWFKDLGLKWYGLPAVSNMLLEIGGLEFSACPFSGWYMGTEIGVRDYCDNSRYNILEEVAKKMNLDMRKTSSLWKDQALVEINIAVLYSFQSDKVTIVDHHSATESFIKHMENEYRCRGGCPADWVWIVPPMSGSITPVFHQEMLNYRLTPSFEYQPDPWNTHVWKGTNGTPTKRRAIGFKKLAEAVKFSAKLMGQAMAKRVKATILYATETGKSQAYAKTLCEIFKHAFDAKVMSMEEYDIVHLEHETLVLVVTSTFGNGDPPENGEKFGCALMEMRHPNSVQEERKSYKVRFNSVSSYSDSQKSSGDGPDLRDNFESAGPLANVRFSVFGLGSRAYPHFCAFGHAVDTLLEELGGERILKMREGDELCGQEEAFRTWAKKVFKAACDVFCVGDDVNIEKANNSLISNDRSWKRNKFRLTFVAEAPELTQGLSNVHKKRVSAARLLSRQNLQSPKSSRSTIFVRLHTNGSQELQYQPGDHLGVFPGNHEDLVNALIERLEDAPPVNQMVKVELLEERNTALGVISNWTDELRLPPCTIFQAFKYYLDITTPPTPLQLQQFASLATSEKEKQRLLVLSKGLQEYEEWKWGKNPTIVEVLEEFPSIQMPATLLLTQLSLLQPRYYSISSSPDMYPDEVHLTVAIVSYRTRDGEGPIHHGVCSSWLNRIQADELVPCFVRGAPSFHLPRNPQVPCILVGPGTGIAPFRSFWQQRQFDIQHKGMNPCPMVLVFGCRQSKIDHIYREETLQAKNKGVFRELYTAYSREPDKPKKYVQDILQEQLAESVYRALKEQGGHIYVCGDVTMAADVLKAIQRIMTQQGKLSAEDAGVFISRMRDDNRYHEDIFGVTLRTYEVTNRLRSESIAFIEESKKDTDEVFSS
UniProt P35228, whole entry, looked up: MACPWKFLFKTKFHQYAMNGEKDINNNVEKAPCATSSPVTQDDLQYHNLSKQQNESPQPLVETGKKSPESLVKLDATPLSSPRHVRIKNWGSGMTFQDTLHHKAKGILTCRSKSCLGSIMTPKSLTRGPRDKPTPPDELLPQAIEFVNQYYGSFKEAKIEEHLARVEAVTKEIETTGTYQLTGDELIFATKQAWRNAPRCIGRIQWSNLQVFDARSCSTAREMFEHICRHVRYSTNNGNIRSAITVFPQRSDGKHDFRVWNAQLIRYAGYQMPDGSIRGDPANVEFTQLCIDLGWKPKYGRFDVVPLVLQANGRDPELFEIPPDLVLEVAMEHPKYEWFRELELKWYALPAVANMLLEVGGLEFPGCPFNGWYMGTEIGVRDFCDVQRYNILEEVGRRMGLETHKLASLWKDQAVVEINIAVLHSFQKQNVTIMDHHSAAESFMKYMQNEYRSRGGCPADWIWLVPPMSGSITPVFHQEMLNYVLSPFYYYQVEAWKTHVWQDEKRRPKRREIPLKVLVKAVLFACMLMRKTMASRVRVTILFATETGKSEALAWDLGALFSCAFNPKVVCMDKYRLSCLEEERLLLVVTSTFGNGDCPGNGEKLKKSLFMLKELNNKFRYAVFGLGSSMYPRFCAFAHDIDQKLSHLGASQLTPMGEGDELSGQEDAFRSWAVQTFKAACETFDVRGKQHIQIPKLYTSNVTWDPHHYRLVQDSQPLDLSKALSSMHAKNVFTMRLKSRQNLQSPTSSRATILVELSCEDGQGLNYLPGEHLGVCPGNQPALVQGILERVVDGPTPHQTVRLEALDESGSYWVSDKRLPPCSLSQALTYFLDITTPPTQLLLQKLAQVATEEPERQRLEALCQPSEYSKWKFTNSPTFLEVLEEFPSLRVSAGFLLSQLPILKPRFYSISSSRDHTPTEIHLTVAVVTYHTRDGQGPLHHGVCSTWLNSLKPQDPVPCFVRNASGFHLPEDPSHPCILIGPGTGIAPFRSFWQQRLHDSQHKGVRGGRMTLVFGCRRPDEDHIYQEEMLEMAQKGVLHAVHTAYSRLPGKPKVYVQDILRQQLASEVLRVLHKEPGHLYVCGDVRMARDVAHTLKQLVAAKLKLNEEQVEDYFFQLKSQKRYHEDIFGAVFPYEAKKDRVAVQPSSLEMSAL

[1] = target: Nitric oxide sythases; iNOS & nNOS (Homo sapiens) (UniProt P29475+P35228); assay: Selectivity ratio of IC50 for recombinant human iNOS to IC50 for recombinant human nNOS

Ratio IC50 (Homo sapiens) | pIC50 (Nitric oxide synthase 1) | pIC50 (Nitric oxide synthase 3) | Ratio IC50 [1] | SMILES
8 | – | – | – | CN(C)CCCn1ccc2ccc(/N=C(\N)c3cccs3)cc21
– | 5.92 | 4.82 | – | CN(C)CCn1ccc2ccc(N=C(N)c3cccs3)cc21
13 | – | – | 50 | CN(C)CCn1ccc2ccc(/N=C(\N)c3cccs3)cc21
